Experimental findings from PMC9476183 (ACS Omega, 2022) are described below.

For this experiment, the target named is T1, recombinant human CYP1B1 (Homo sapiens, UniProt Q16678).
T1 sequence (Q16678 1-543): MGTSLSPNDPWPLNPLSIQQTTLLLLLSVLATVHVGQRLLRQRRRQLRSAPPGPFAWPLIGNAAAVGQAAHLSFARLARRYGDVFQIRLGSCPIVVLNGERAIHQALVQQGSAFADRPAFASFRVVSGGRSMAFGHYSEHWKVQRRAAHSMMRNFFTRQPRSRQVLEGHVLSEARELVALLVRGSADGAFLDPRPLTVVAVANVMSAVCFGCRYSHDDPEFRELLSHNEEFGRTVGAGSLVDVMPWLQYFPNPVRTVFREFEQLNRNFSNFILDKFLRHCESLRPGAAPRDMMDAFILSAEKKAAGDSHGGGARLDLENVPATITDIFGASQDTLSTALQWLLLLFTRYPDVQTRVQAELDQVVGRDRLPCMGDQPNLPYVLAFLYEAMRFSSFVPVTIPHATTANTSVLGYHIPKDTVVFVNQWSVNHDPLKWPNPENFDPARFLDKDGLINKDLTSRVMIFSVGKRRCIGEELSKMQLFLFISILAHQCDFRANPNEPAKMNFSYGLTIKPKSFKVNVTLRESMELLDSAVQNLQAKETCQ
In words: EROD assay, CYP1B1 inhibition. The settings on record: IC50 CYP1B1 ± SD, recombinant human enzyme, triplicate.

The term IC50 denotes the midpoint of a concentration-inhibition curve. As to `O=c1cc(-c2ccccc2)oc2c1ccc1ccccc12` [ANF, α-naphthoflavone], the IC50 turned out to be 20 ± 10 nM.
